Values quoted from earlier work in US6485955B1, “Quiescent cell dipeptidyl peptidase: a novel cytoplasmic serine protease” (The Trustees of Tufts University, priority 1997, dated 2002).

Chains of the proteins cited; added tags and fusions are not shown.
UniProt P27487, whole entry: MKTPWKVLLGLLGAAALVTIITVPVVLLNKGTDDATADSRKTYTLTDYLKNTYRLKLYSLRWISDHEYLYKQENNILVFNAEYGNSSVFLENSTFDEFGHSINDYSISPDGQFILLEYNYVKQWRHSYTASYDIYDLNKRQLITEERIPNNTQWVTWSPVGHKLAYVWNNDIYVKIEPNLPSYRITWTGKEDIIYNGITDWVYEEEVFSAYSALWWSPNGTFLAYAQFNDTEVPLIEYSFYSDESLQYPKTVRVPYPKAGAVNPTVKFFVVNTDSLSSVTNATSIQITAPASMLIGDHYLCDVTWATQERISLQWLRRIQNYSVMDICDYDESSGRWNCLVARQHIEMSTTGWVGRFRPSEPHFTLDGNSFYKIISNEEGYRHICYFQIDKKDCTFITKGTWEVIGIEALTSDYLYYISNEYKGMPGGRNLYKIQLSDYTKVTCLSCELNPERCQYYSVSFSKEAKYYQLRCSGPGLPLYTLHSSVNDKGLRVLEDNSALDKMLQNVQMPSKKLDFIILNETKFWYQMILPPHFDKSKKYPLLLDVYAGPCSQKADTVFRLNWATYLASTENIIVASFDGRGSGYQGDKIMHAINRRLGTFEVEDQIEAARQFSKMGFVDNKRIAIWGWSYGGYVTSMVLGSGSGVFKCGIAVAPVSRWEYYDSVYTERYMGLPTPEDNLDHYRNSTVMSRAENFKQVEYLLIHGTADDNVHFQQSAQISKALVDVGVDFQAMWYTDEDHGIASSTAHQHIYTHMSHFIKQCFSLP

Biological target: DPIV (Homo sapiens, UniProt P27487)
Conditions: cited from earlier work

SMILES: CC(C)[C@H](N)C(=O)N1CCC[C@H]1B(O)O [VbP, Val-boroPro]
- DPIV inhibition: highly potent inhibitor
